{"source": "patent US20220259279A1", "about": "“ALGINATE-BASED MICROCAPSULATION FOR THE DELIVERY OF ALPHA-CGRP IN CARDIOVASCULAR DISEASES” (University of South Carolina, priority 2019, published 2022)", "origin": "cited, not measured here", "key": {"[1]": {"settings": "cited from earlier work"}, "[2]": {"test_system": "normal as well as spontaneously hypertensive rats", "settings": "intravenous injection, normal and spontaneously hypertensive rats; cited from earlier work"}}}
{"substance": "alpha-calcitonin gene related peptide [α-CGRP]", "values": [{"measurement": "time the native peptide lasts in the body", "setting": "[1]", "value": "5 to 7", "unit": "min"}, {"measurement": "time after which MAP returned to normal baseline", "setting": "[2]", "value": 20, "unit": "min"}]}
